From article PMC8704709, “Improved Anticancer Activities of a New Pentafluorothio-Substituted Vorinostat-Type Histone Deacetylase Inhibitor” (Pharmaceuticals, 2021) come the findings set out here.

SMILES strings stand for the structures.

The test has as its system DU145 cells. The test is described as follows: Western blot in DU145 cells (acetyl-H3, PARP, EGFR, P-mTOR). Conditions: 24 h. Format: cell-based, human. The procedure: Western blots were performed as described earlier. Cells were seeded in 100 mm petri dishes, grown to almost confluency, treated for 24 h, washed and frozen, followed by lysis with RIPA Buffer, added with one cOmplete™ Mini protease Inhibitor tablet/10 mL (Roche), and quantification with Pierce^TM BCA Protein Assay Kit (Thermo Fisher Scientific). Thereafter protein levels were normalized to untreated controls so equal protein loading of 20 µg/lane. Laemmli Buffer and β-mercaptoethanol were added before probes were desaturated at 96 °C for 10 min. First, 7.5% or 12% SDS gels (Biorad, Munich, Germany) were loaded with proteins and electrophoresis was done. Thereafter, proteins were transferred to activated polyvinylidene difluoride membranes (PVDF) by electroblotting. Finally, the membranes were blocked with 1% BSA and incubated with primary antibodies over night at 4 °C.
Blots were washed three times with 1% TBS-Tween and incubated with anti-mouse or anti-rabbit peroxidase-coupled anti-IgG secondary antibodies (1:5000–1:10,000) at room temperature for 60 min. Subsequently, antibody bondage was illustrated using Clarity and Clarity Max ECL Western Blotting Substrates (Biorad, Munich, Germany) for detection and Celvin-S developer (Biostep, software SnapAndGo Vs 1.8.1) for development. […]

`COc1cc2ncnc(Nc3ccc(F)c(Cl)c3)c2cc1OCCCN1CCOCC1` [gefitinib, reference compound]: the EGFR protein expression entry is “no EGFR-suppressing effects”.
